{"sequences": {"note": "Sequences of proteins named here, by UniProt entry; tags and fusion partners are left off. Residues count along the entry.", "UniProt Q13639, 1-387 isoform Q13639-2": "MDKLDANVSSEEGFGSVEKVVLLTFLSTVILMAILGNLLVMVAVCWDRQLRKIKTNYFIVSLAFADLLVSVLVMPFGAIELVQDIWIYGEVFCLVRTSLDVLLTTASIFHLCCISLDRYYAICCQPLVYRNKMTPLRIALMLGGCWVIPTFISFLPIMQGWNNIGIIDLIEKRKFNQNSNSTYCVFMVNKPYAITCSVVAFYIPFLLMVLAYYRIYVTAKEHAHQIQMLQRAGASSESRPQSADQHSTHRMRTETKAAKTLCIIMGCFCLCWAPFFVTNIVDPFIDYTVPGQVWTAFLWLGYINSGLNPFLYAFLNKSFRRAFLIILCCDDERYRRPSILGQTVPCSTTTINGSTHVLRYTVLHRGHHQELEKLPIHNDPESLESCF"}, "source": "paper PMC10244282", "about": "“Cardiovascular effects of bufotenin on human 5-HT4 serotonin receptors in cardiac preparations of transgenic mice and in human atrial preparations” (Naunyn-Schmiedeberg's Archives of Pharmacology, 2023)", "biological_target": "T1, human 5-HT4 receptor (Homo sapiens, UniProt Q13639)", "T1 construct": "expressed in transfected cells; host or cells: cardiomyocytes of transgenic mice (alpha-myosin heavy chain promoter); isolated left and right atria and Langendorff-perfused hearts", "test": "Isolated electrically stimulated (1 Hz) left atrial preparations from 5-HT4-TG mice, organ bath contractility", "parameters": "species or system human (expressed in cardiomyocytes of transgenic mice)", "details": "left atrium of 5-HT4-TG; 5-HT 1 µM, bufotenin 3 µM, tryptamine 100 µM", "source_text": "A mouse with cardiomyocyte-specific expression of the human 5-HT4(a) receptor has been generated in our laboratory (Gergs et al. [2010]). The cardiac myocyte-specific expression was achieved by the use of the α-myosin heavy chain promoter. The age of the animals studied in the atrial contraction experiments was around 4 months. Both genders were studied. All mice were housed under conditions of optimum light, temperature, and humidity with food and water provided ad libitum. The investigation conformed to the Guide for the Care and Use of Laboratory Animals as published by the National Research Council (2011). The animals were handled and maintained according to the approved protocols of the Animal Welfare Committee of the University of Halle-Wittenberg, Halle, Germany.\nIn brief, the right or left atrial preparations from the mice were isolated and mounted in organ baths as previously described (Gergs et al. [2013]; Neumann et al. [2003]). […] The solution was continuously gassed with 95% O2 and 5% CO2 and maintained at 37 °C and pH 7.4 (Kirchhefer et al. [2004]; Neumann et al. [1998], [2003]). Spontaneously beating right atrial preparations from mice were used to study any chronotropic effects.\nThe drug application was as follows."}
{"smiles": "CN(C)CCc1c[nH]c2ccc(O)cc12", "note": "[Bufotenin, 5-hydroxy-N,N-dimethyl-tryptamine]", "values": [{"measurement": "TR", "result": "26.08 ± 1.23", "unit": "ms"}]}
